# Laboratory results taken from patent publication US8703701B2 (Indiana University Research and Technology Corporation, priority 2009, dated 2014).
# Sequences of proteins named here, by UniProt entry; tags and fusion partners are left off. Residues count along the entry.
# UniProt P43220, 24-463: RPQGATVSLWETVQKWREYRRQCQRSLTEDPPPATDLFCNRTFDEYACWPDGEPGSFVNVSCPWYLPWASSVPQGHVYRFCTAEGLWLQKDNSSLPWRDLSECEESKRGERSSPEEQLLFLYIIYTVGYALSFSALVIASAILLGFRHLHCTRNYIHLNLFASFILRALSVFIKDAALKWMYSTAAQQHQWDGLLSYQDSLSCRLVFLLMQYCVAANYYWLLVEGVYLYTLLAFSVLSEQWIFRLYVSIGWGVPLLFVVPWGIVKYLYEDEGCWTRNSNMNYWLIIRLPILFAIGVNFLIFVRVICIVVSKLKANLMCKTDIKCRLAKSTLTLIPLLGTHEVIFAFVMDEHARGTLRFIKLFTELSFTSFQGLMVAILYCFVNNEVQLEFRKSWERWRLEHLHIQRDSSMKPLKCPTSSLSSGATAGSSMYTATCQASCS
# UniProt P47871, 26-477: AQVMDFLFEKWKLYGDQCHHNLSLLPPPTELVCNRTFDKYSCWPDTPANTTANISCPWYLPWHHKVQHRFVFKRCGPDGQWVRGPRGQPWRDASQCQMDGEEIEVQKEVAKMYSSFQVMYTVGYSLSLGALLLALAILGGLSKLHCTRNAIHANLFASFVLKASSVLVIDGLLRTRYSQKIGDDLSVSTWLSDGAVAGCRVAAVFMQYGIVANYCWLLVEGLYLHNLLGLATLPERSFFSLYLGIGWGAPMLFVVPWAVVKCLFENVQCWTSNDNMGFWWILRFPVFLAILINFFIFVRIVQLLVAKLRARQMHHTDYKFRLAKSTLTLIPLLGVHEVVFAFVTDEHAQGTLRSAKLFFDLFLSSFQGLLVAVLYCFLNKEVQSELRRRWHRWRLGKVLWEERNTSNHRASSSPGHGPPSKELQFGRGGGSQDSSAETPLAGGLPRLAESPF
# Legend:
# GLP-1 receptor = biological target: T1, GLP-1 receptor (Homo sapiens, UniProt P43220); assay: cAMP induction, firefly luciferase reporter assay, GLP-1 receptor; format: cell-based; conditions: GLP-1 Receptor EC50 (nM), Table 1; HEK293 cells co-transfected with receptor and CRE-luciferase
# T1 construct: expressed in transfected cells; host or cells: HEK293
# Procedure: (§1) The ability of each peptide to induce cAMP was measured in a firefly luciferase-based reporter assay.
# (§2) At the end of the incubation, 100 μL of LucLite luminescence substrate reagent (Perkin Elmer, Wellesley, Mass.) were added to each well. The plate was shaken briefly, incubated 10 min in the dark and light output was measured on MicroBeta-1450 liquid scintillation counter (Perkin-Elmer, Wellesley, Mass.).
# glucagon receptor = biological target: T2, glucagon receptor (Homo sapiens, UniProt P47871); assay: cAMP induction, firefly luciferase reporter assay, glucagon receptor; format: cell-based; conditions: Glucagon Receptor EC50 (nM), Table 1; HEK293 cells co-transfected with receptor and CRE-luciferase
# T2 construct: expressed in transfected cells; host or cells: HEK293
# Procedure: as §1, §2
EC50 (GLP-1 receptor) [nM],EC50 (glucagon receptor) [nM],Compound
16.2,–,CSCC[C@H](NC(=O)[C@H](CC(C)C)NC(=O)[C@H](Cc1c[nH]c2ccccc12)NC(=O)[C@H](CCC(N)=O)NC(=O)[C@@H](NC(=O)[C@H](Cc1ccccc1)NC(=O)[C@H](CC(=O)O)NC(=O)[C@@H]1CCCNC(=O)C[C@H](NC(=O)[C@H](CO)NC(=O)[C@H](CC(=O)O)NC(=O)[C@H](CC(C)C)NC(=O)[C@H](Cc2ccc(O)cc2)NC(=O)[C@H](CCCCN)NC(=O)[C@H](CO)NC(=O)[C@H](Cc2ccc(O)cc2)NC(=O)[C@H](CC(=O)O)NC(=O)[C@H](CO)NC(=O)[C@@H](NC(=O)[C@H](Cc2ccccc2)NC(=O)[C@@H](NC(=O)CNC(=O)[C@H](CCC(N)=O)NC(=O)[C@H](CO)NC(=O)[C@@H](N)Cc2c[nH]cn2)[C@@H](C)O)[C@@H](C)O)C(=O)N[C@@H](CCCNC(=N)N)C(=O)N[C@@H](C)C(=O)N1)C(C)C)C(=O)N[C@@H](CC(N)=O)C(=O)N[C@H](C(=O)O)[C@@H](C)O [Peptide 10]
23.8,1.27,CSCC[C@H](NC(=O)[C@H](CC(C)C)NC(=O)[C@H](Cc1c[nH]c2ccccc12)NC(=O)[C@H](CCC(N)=O)NC(=O)[C@@H](NC(=O)[C@H](Cc1ccccc1)NC(=O)[C@H](CC(=O)O)NC(=O)[C@@H]1CCCNC(=O)CC[C@H](NC(=O)[C@H](CC(=O)O)NC(=O)[C@H](CC(C)C)NC(=O)[C@H](Cc2ccc(O)cc2)NC(=O)[C@H](CCCCN)NC(=O)[C@H](CO)NC(=O)[C@H](Cc2ccc(O)cc2)NC(=O)[C@H](CC(=O)O)NC(=O)[C@H](CO)NC(=O)[C@@H](NC(=O)[C@H](Cc2ccccc2)NC(=O)[C@@H](NC(=O)CNC(=O)[C@H](CCC(N)=O)NC(=O)[C@H](CO)NC(=O)[C@@H](N)Cc2c[nH]cn2)[C@@H](C)O)[C@@H](C)O)C(=O)N[C@@H](CCCNC(=N)N)C(=O)N[C@@H](CCCNC(=N)N)C(=O)N[C@@H](C)C(=O)N1)C(C)C)C(=O)N[C@@H](CC(N)=O)C(=O)N[C@H](C(=O)O)[C@@H](C)O [Peptide 4]
26.1,3.51,CSCC[C@H](NC(=O)[C@H](CC(C)C)NC(=O)[C@H](Cc1c[nH]c2ccccc12)NC(=O)[C@H](CCC(N)=O)NC(=O)[C@@H](NC(=O)[C@H](Cc1ccccc1)NC(=O)[C@H](CC(=O)O)NC(=O)[C@@H]1CCNC(=O)CC[C@H](NC(=O)[C@H](CC(=O)O)NC(=O)[C@H](CC(C)C)NC(=O)[C@H](Cc2ccc(O)cc2)NC(=O)[C@H](CCCCN)NC(=O)[C@H](CO)NC(=O)[C@H](Cc2ccc(O)cc2)NC(=O)[C@H](CC(=O)O)NC(=O)[C@H](CO)NC(=O)[C@@H](NC(=O)[C@H](Cc2ccccc2)NC(=O)[C@@H](NC(=O)CNC(=O)[C@H](CCC(N)=O)NC(=O)[C@H](CO)NC(=O)[C@@H](N)Cc2c[nH]cn2)[C@@H](C)O)[C@@H](C)O)C(=O)N[C@@H](CCCNC(=N)N)C(=O)N[C@@H](CCCNC(=N)N)C(=O)N[C@@H](C)C(=O)N1)C(C)C)C(=O)N[C@@H](CC(N)=O)C(=O)N[C@H](C(=O)O)[C@@H](C)O [Peptide 5]
2.38,0.61,CSCC[C@H](NC(=O)[C@H](CC(C)C)NC(=O)[C@H](Cc1c[nH]c2ccccc12)NC(=O)[C@H](CCC(N)=O)NC(=O)[C@@H](NC(=O)[C@H](Cc1ccccc1)NC(=O)[C@H](CC(=O)O)NC(=O)[C@@H]1CCCNC(=O)CNC(=O)CC[C@H](NC(=O)[C@H](CC(=O)O)NC(=O)[C@H](CC(C)C)NC(=O)[C@H](Cc2ccc(O)cc2)NC(=O)[C@H](CCCCN)NC(=O)[C@H](CO)NC(=O)[C@H](Cc2ccc(O)cc2)NC(=O)[C@H](CC(=O)O)NC(=O)[C@H](CO)NC(=O)[C@@H](NC(=O)[C@H](Cc2ccccc2)NC(=O)[C@@H](NC(=O)CNC(=O)[C@H](CCC(N)=O)NC(=O)[C@H](CO)NC(=O)[C@@H](N)Cc2c[nH]cn2)[C@@H](C)O)[C@@H](C)O)C(=O)N[C@@H](CCCNC(=N)N)C(=O)N[C@@H](CCCNC(=N)N)C(=O)N[C@@H](C)C(=O)N1)C(C)C)C(=O)N[C@@H](CC(N)=O)C(=O)N[C@H](C(=O)O)[C@@H](C)O [Peptide 6]
